Test results: ChEMBL document CHEMBL1126087, “(E)-1,3-dialkyl-7-methyl-8-(3,4,5-trimethoxystyryl)xanthines: potent and selective adenosine A2 antagonists” (J Med Chem, 1992)

Sequences of proteins named here, by UniProt entry; tags and fusion partners are left off.
UniProt P47745, whole entry: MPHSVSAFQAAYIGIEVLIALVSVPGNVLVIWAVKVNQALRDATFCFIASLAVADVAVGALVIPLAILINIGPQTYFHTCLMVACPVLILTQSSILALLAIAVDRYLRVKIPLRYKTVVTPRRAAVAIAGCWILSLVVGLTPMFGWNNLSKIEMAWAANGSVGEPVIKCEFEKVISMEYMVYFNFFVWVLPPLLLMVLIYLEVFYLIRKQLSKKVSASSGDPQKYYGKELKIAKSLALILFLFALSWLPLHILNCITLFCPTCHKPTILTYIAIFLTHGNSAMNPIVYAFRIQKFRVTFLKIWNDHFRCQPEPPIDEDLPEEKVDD

Target: Adenosine receptor A1 (Cavia porcellus, UniProt P47745)

**Q.** `CCCn1c(=O)c2nc(/C=C/c3cc(OC)c(OC)c(OC)c3)[nH]c2n(CCC)c1=O` was tested. Which Ki did it give?
**A.** 850 nM
